Measured values from patent publication EP4725948A1, “PYRROLO[2,3-D]PYRIMIDIN-4-AMINE DERIVATIVE AND USE THEREOF IN MEDICINE” (Haisco Pharmaceutical Group Co., Ltd., priority 2023, dated 2024).

The chains behind the UniProt entries cited, without tags or fusion partners.
UniProt Q02108, whole entry: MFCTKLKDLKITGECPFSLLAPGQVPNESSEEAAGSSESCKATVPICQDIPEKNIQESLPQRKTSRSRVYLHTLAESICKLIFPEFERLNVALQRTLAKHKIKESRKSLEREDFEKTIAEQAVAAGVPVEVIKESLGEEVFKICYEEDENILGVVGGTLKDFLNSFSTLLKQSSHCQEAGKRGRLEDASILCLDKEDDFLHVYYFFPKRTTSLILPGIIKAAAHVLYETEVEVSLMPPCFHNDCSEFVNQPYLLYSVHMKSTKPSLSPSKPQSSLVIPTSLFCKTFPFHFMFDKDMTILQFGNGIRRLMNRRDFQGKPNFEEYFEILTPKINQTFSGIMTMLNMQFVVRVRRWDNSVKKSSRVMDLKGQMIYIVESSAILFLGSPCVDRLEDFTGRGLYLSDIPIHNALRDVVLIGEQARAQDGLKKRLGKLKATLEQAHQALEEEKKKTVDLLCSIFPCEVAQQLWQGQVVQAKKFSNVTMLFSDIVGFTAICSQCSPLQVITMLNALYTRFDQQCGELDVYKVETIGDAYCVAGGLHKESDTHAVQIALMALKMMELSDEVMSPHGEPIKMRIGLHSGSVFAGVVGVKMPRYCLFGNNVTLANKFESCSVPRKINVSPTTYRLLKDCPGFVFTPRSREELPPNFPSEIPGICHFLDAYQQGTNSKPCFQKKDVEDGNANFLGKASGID
UniProt Q02153, whole entry: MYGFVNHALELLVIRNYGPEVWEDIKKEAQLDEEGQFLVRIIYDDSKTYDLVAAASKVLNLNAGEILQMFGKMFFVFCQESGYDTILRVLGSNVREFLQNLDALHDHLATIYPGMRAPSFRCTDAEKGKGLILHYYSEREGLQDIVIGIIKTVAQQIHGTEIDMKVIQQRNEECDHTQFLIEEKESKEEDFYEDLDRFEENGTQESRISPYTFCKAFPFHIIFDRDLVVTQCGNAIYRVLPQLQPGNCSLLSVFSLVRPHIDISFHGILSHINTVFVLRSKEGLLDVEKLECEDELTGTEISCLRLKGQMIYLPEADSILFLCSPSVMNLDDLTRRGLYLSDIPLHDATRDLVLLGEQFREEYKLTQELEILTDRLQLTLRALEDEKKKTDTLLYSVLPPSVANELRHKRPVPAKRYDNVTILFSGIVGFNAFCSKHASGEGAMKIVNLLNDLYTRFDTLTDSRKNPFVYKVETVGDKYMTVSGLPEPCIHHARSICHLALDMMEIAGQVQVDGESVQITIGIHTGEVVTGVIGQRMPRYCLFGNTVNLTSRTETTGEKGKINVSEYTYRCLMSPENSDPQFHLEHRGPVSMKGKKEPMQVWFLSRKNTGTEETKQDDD

Target: soluble guanylate cyclase (sGC) (Homo sapiens, UniProt Q02108+Q02153)
Assay: In vitro detection experiment for soluble guanylate cyclase (sGC) activity (TR-FRET);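 note: enzyme reaction started with GTP and run for 60 min at 37°C, followed by a 60 min detection step at room temperature, with EC50 obtained by nonlinear curve fitting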
Conditions: enzymatic agonism and/or activation of sGC; 1.5 nM sGC, 5 µM GTP, 100 µM DETA NONOate; tested form: TFA

CC(C)(Cc1coc(C2(C)C(=O)Nc3nc(-n4c(=O)n(CC5CCCCC5)c5cc(F)ccc54)nc(N)c32)n1)C(=O)O (stereo not shown)
EC50: < 20 nM
